What is called IC50 is the concentration needed to halve the response being measured.

Results on 2 molecules are retold here after patent publication US6143932A, “Selectively N-alkylated peptidomimetic combinatorial libraries and compounds therein” (dated 2000).

This assay deals with α-glucosidase from bakers yeast. The experiment in a line: α-Glucosidase inhibition assay. The conditions noted are these: read-out: α-Glucosidase Inhibition Assay IC50; p-nitrophenyl-α-D-glucopyranoside as chromogenic substrate, 96-well format.

Regarding `CCN(C(=O)[C@@H](N)Cc1ccccc1)[C@H](CC(C)C)C(=O)NCc1ccc2ccccc2c1`, the IC50 stood at 398 µM.

For `CCC(C)[C@@H](C(=O)NCc1ccc2ccccc2c1)N(CC)C(=O)[C@@H](N)Cc1ccccc1` (some centres unmarked), the IC50 came out at 610 µM.
